Series [1] in a line: Precipitation of ZLC-BSA mixture solutions at adjusted pH. In kind it is physicochemical. Conditions: pure solution, pH 3-11. Here is the method: In the following study, four ZLC-BSA mixture solutions are prepared with 2.53% Zn and varied BSA concentrations (0.05%, 0.1%, 0.5% and 1% by weight) in deionized water.
The pH of the solutions is adjusted to 3, 4, 5, 6, 7, 8, 9, 10 and 11 to observe the formation of precipitation. Precipitate is formed in all solutions at pH ranging from 3 to 5. […] All solutions appear clear at pH 8. A small amount of precipitation is also found at pH 9 and 10. At pH 11, precipitate is formed in all solutions. As the concentration of BSA increases, there is an increased amount of precipitation formed at low pH range from 3 to 5. In addition, the pH of pure ZLC solution and the pH of pure 0.5% BSA solution are adjusted to the same range to observe the formation of precipitation. […] The formation of precipitation in acid pH requires both ZLC and BSA to be present in solution.

The mark [2] stands for this setting: sample 2: 1% BSA w/w in H2O, pH 7.2.
Where [3] appears, read: sample 3: 1% BSA w/w in H2O, pH adjusted to 5.1.

Like-named read-outs stand apart in the source and are kept apart here.

For Bovine serum albumin [BSA], under “sample 2: 1% BSA w/w in H2O”, the pH was 7.2. For the same substance, under setting [2], the Observation result was “Transparent” and the “Turbidity (NTU)” value is recorded as 3.6 NTU. Besides, under setting [3], the Observation result is given as “Transparent” and the “Turbidity (NTU)” value is recorded as 10.6 NTU. Besides, the formation of precipitation result in series [1] is listed as “No precipitation”.

Source of the values: patent US9827177B2, “Antiperspirant products with protein and antiperspirant salts” (Colgate-Palmolive Company, priority 2012, dated 2017).
